Like-named read-outs stand apart in the source and are kept apart here.
Assays:
CD22 [1] = molecular target: T1, CD22 (Homo sapiens, UniProt P20273); assay: SPR binding of humanized anti-CD22 antibodies (mAb supernatant) to human CD22; parameters: human CD22 (d1 to d7 domain according to NP_001762.2); details: SPR, mAb supernatant captured on protein A, human CD22-gly
Experimental: Binding of humanized anti-CD22 antibodies to human CD22 was measured by surface plasmon resonance (SPR). For assessment of binding by SPR, biotinylated protein A (15 μg/mL) was immobilized to the surface of an NLC chip. 30 μL of mAb supernatant was added to 150 μL of PBS-T and captured over the protein A surface. […]

CD22 [2] = molecular target: T1, CD22; format: binding; parameters: human CD22 (d1 to d7 domain according to NP_001762.2)

Molecule | ka (CD22 [1]) [M⁻¹ s⁻¹] | kd (CD22 [1]) [s⁻¹] | ka (CD22 [2]) [M⁻¹ s⁻¹] | kd (CD22 [2]) [s⁻¹]
TNT76 (antibody) heavy: QVQLQESGPGLVKPSDTLSLTCTVSGFAFSIYDMSWIRQPPGKGLEWIAYISSGGGTTYYNPSLKSRVTISVDTSKNQFSLKLSSVTAADTAVYYCARHSGYGTHWGVLFAYWGRGTLVTVSSASTKGPSVFPLAPSSKSTSGGTAALGCLVKDYFPEPVTVSWNSGALTSGVHTFPAVLQSSGLYSLSSVVTVPSSSLGTQTYICNVNHKPSNTKVDKKVEPKSCDKTHTCPPCPAPEAAGAPSVFLFPPKPKDTLMISRTPEVTCVVVDVSHEDPEVKFNWYVDGVEVHNAKTKPREEQYNSTYRVVSVLTVLHQDWLNGKEYKCKVSNKALPAPIEKTISKAKGQPREPQVYTLPPSREEMTKNQVSLTCLVKGFYPSDIAVEWESNGQPENNYKTTPPVLDSDGSFFLYSKLTVDKSRWQQGNVFSCSVMHEALHNHYTQKSLSLSPGRPQGFGPP light: DIQMTQSPSSVSASVGDRVTITCRASQDIHGYLAWYQQKPGKAPKLLIYYTSSLQSGVPSRFSGSGSGTDFTLTISSLQPEDFATYYCQQGNTLPWTFGQGTKLEIKRTVAAPSVFIFPPSDEQLKSGTASVVCLLNNFYPREAKVQWKVDNALQSGNSQESVTEQDSKDSTYSLSSTLTLSKADYEKHKVYACEVTHQGLSSPVTKSFNRGEC | 199000 | 0.00601 | – | –
TNT71 DAR1: humanized anti-CD22 antibody TNT71 "conjugated with CpG (SEQ ID NO: 3) with a DAR1 configuration" (conjugate) heavy: EVQLVESGGGLVQPGGSLRLSCAASGFTFSSYEMNWVRQAPGKGLEWVSYISSSGSTIYYADSVKGRFTISRDNAKNSLYLQMNSLRAEDTAVYYCARHSGYGTHWGVLFAYWGRGTLVTVSSASTKGPSVFPLAPSSKSTSGGTAALGCLVKDYFPEPVTVSWNSGALTSGVHTFPAVLQSSGLYSLSSVVTVPSSSLGTQTYICNVNHKPSNTKVDKKVEPKSCDKTHTCPPCPAPEAAGAPSVFLFPPKPKDTLMISRTPEVTCVVVDVSHEDPEVKFNWYVDGVEVHNAKTKPREEQYNSTYRVVSVLTVLHQDWLNGKEYKCKVSNKALPAPIEKTISKAKGQPREPQVYTLPPSREEMTKNQVSLTCLVKGFYPSDIAVEWESNGQPENNYKTTPPVLDSDGSFFLYSKLTVDKSRWQQGNVFSCSVMHEALHNHYTQKSLSLSPGRPQGFGPP light: DIQMTQSPSSLSASVGDRVTITCRASQDIHGYLNWYQQKPGKAPKLLIYYTSILHSGVPSRFSGSGSGTDFTLTISSLQPEDFATYFCQQGNTLPWTFGQGTKLEIKRTVAAPSVFIFPPSDEQLKSGTASVVCLLNNFYPREAKVQWKVDNALQSGNSQESVTEQDSKDSTYSLSSTLTLSKADYEKHKVYACEVTHQGLSSPVTKSFNRGEC | – | – | 81700 | 3.14e-05
TNT72 DAR1: humanized anti-CD22 antibody TNT72 "conjugated with CpG (SEQ ID NO: 3) with a DAR1 configuration" (conjugate) heavy: QVQLQESGPGLVKPSDTLSLTCTVSGFAFSIYDMSWIRQPPGKGLEWIAYISSGGGTTYYNPSLKSRVTISVDTSKNQFSLKLSSVTAADTAVYYCARHSGYGTHWGVLFAYWGRGTLVTVSSASTKGPSVFPLAPSSKSTSGGTAALGCLVKDYFPEPVTVSWNSGALTSGVHTFPAVLQSSGLYSLSSVVTVPSSSLGTQTYICNVNHKPSNTKVDKKVEPKSCDKTHTCPPCPAPEAAGAPSVFLFPPKPKDTLMISRTPEVTCVVVDVSHEDPEVKFNWYVDGVEVHNAKTKPREEQYNSTYRVVSVLTVLHQDWLNGKEYKCKVSNKALPAPIEKTISKAKGQPREPQVYTLPPSREEMTKNQVSLTCLVKGFYPSDIAVEWESNGQPENNYKTTPPVLDSDGSFFLYSKLTVDKSRWQQGNVFSCSVMHEALHNHYTQKSLSLSPGRPQGFGPP light: DIQMTQSPSSLSASVGDRVTITCRASQDIHGYLNWYQQKPGKAPKLLIYYTSILHSGVPSRFSGSGSGTDFTLTISSLQPEDFATYFCQQGNTLPWTFGQGTKLEIKRTVAAPSVFIFPPSDEQLKSGTASVVCLLNNFYPREAKVQWKVDNALQSGNSQESVTEQDSKDSTYSLSSTLTLSKADYEKHKVYACEVTHQGLSSPVTKSFNRGEC | – | – | 201000 | 6.59e-05
TNT70 DAR1: humanized anti-CD22 antibody TNT70 "conjugated with CpG (SEQ ID NO: 3) with a DAR1 configuration" (conjugate) heavy: QVQLLESGGGVVQPGGSLRLSCAASGFAFSIYDMNWVRQAPGKGLEWVSAISSGGGTTYYADSVKGRFTISRDNAKNSLYLQMNSLRAEDTAVYYCARHSGYGTHWGVLFAYWGRGTLVTVSSASTKGPSVFPLAPSSKSTSGGTAALGCLVKDYFPEPVTVSWNSGALTSGVHTFPAVLQSSGLYSLSSVVTVPSSSLGTQTYICNVNHKPSNTKVDKKVEPKSCDKTHTCPPCPAPEAAGAPSVFLFPPKPKDTLMISRTPEVTCVVVDVSHEDPEVKFNWYVDGVEVHNAKTKPREEQYNSTYRVVSVLTVLHQDWLNGKEYKCKVSNKALPAPIEKTISKAKGQPREPQVYTLPPSREEMTKNQVSLTCLVKGFYPSDIAVEWESNGQPENNYKTTPPVLDSDGSFFLYSKLTVDKSRWQQGNVFSCSVMHEALHNHYTQKSLSLSPGRPQGFGPP light: DIQMTQSPSSLSASVGDRVTITCRASQDIHGYLNWYQQKPGKAPKLLIYYTSILHSGVPSRFSGSGSGTDFTLTISSLQPEDFATYFCQQGNTLPWTFGQGTKLEIKRTVAAPSVFIFPPSDEQLKSGTASVVCLLNNFYPREAKVQWKVDNALQSGNSQESVTEQDSKDSTYSLSSTLTLSKADYEKHKVYACEVTHQGLSSPVTKSFNRGEC | – | – | 125000 | 6.29e-05
TNT87 (antibody) heavy: EVQLVESGGGLVQPGGSLRLSCAASGFTFSSYEMNWVRQAPGKGLEWVSYISSSGSTIYYADSVKGRFTISRDNAKNSLYLQMNSLRAEDTAVYYCARHSGYGTHWGVLFAYWGRGTLVTVSSASTKGPSVFPLAPSSKSTSGGTAALGCLVKDYFPEPVTVSWNSGALTSGVHTFPAVLQSSGLYSLSSVVTVPSSSLGTQTYICNVNHKPSNTKVDKKVEPKSCDKTHTCPPCPAPEAAGAPSVFLFPPKPKDTLMISRTPEVTCVVVDVSHEDPEVKFNWYVDGVEVHNAKTKPREEQYNSTYRVVSVLTVLHQDWLNGKEYKCKVSNKALPAPIEKTISKAKGQPREPQVYTLPPSREEMTKNQVSLTCLVKGFYPSDIAVEWESNGQPENNYKTTPPVLDSDGSFFLYSKLTVDKSRWQQGNVFSCSVMHEALHNHYTQKSLSLSPGRPQGFGPP light: DIVMTQTPLSLSVTPGQPASISCRASQDIHGYLNWYQQKPGQSPQLLIYYTSILHSGVPDRFSGSGSGTDFTLKISRVEAEDVGVYFCQQGNTLPWTFGGGTKLEIKRTVAAPSVFIFPPSDEQLKSGTASVVCLLNNFYPREAKVQWKVDNALQSGNSQESVTEQDSKDSTYSLSSTLTLSKADYEKHKVYACEVTHQGLSSPVTKSFNRGEC | 250000 | 0.00171 | – | –

From patent US11920136B2, “Transglutaminase-mediated conjugation” (Tallac Therapeutics, Inc., priority 2020, dated 2024)
